Data: patent US11116760B2 (Gilead Sciences, Inc., priority 2018, dated 2021)

The chains behind the UniProt entries cited, without tags or fusion partners. Residues count along the entry.
UniProt P13612, 34-1032: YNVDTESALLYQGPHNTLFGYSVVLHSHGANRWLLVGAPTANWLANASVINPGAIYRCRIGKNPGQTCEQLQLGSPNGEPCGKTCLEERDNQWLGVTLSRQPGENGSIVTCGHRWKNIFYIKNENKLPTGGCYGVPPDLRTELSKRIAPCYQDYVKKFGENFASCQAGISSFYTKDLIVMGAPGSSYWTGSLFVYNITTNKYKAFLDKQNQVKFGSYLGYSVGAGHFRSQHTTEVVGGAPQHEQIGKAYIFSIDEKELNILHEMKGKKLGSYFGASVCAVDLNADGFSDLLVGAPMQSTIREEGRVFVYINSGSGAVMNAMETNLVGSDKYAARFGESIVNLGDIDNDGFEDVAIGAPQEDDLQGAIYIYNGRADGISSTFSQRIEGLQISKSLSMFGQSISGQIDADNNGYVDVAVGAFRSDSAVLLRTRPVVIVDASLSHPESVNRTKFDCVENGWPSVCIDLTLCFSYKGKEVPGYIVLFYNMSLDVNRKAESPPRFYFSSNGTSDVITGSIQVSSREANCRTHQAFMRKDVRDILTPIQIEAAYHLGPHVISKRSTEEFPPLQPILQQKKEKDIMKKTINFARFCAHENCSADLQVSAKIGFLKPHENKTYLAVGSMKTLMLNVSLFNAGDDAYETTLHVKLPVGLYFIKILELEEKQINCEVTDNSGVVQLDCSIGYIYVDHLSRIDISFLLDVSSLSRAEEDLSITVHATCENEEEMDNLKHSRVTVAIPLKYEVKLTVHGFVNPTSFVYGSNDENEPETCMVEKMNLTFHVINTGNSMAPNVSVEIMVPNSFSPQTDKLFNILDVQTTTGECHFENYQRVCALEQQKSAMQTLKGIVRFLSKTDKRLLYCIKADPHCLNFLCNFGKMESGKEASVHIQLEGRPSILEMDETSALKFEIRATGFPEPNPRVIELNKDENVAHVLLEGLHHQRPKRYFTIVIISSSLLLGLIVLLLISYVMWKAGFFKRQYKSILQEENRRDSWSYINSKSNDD
UniProt P26010, 20-798: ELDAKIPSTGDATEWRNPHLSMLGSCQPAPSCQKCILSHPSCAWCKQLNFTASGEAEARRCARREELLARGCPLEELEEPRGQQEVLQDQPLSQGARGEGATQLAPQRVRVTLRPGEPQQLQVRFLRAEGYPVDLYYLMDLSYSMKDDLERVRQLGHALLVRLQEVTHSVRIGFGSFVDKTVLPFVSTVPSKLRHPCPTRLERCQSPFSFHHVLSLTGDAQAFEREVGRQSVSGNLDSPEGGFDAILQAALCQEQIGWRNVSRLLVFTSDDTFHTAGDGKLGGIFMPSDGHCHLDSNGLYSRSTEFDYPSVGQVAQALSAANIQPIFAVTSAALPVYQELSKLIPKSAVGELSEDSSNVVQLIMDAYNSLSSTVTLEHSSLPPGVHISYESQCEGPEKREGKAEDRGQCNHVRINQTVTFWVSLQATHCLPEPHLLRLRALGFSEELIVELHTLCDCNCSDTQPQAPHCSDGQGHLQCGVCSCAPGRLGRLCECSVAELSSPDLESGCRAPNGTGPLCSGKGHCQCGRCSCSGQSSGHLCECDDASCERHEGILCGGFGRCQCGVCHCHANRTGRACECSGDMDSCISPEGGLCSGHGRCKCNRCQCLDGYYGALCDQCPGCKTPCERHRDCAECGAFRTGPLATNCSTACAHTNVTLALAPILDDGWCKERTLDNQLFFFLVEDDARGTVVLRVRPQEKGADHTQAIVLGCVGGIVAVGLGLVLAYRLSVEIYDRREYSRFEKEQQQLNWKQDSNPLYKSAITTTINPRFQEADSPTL

Target: α4β7 integrin (Homo sapiens (Human), UniProt P13612+P26010)
Test: α4β7 Integrin Cell Capture Assay
Format: cell-based
Description: α4β7 Integrin Cell Capture Assay
The potency of inhibitors in preventing α4β7 integrin interaction with MadCAM-1 was measured by monitoring the capture of α4β7 integrin expressing cells on a recombinant MadCAM-1 extracellular domain-coated plate. […] The plates were then washed with PBS and blocked with 3% BSA for 2 hours before being washed again.
RPM18866 cells were spun down and re-suspended in assay medium (DMEM+0.5% FBS+0.5 mM MnCl2) at a density of 0.5×10^6 cells/mL. […] The plates were incubated at 37° C. for 1 hour. 50 μL of cells were transferred to the blocked, MadCAM-1-coated plates and incubated for 30 minutes at 37° C. […] The plates were incubated for 90 minutes at room temperature. The plates were then washed 3 times with 70 μL of PBS per well and imaged on a Cellomics ArrayScan instrument. The cells that were bound to the plate were counted and plotted against the compound concentration to determine the EC50 of the test compounds.

In the case of `CC[C@@H](Nc1cc(F)c(C(=O)N[C@@H](Cc2ccc(-c3cc4cnccc4n(C)c3=O)c3ncccc23)C(=O)O)c(F)c1)C(F)(F)F` [Example 112, (S)-2-(2,6-difluoro-4-(((R)-1,1,1-trifluorobutan-2-yl)amino)benzamido)-3-(8-(1-methyl-2-oxo-1,2-dihydro-1,6-naphthyridin-3-yl)quinolin-5-yl)propanoic acid], the EC50 is reported as 400 pM.
